Source: patent publication US11331310B2, “Method of treating cocaine addiction” (MyMD Pharmaceuticals (Florida), Inc., priority 2015, dated 2022)

Protein sequences, listed by entry. Tags and fused reporters are not part of them.
UniProt P21397, whole entry, species assumed: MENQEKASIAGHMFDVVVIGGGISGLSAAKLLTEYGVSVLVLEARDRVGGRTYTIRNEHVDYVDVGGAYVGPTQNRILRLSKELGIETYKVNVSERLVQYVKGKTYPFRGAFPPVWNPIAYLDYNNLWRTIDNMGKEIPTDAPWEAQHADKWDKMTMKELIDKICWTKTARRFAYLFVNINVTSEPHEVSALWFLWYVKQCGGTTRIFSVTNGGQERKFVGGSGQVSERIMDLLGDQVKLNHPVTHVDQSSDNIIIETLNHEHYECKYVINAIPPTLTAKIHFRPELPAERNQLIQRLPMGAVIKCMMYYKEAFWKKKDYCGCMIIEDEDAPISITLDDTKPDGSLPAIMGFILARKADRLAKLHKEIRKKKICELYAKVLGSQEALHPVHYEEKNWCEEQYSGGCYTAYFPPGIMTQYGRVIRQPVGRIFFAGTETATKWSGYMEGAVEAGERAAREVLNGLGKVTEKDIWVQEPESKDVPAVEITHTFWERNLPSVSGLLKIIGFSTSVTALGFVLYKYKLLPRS

Molecular target: T1, MAO-A (Homo sapiens, UniProt P21397)
T1 construct: purchased
Experiment: MAO-Glo luminescent assay, MAO-A inhibition
Type: biochemical
Details: 1 hour at room temperature; compared among five alkaloids
Source text: This example describes experiments for determining monoamine oxidase (MAO) inhibition for isomyosmine and other alkaloids. MAOs are enzymes located on the outer membrane of mitochondria and are involved in the catabolism of monoamine neurotransmitters. There are two well-characterized isoenzymes: MAO-A, which predominantly catabolizes serotonin and norepinephrine, and MAO-B, which preferentially catabolizes benzylamine and phenylethylamine. Dopamine and tyramine are metabolized by both isoforms.
To detect the activity of MAO, a luminescent method (MAO-Glo Assay kit, from Promega, Cat #V1401) was used. In this method, a MAO substrate (a derivative of beetle luciferin provided in the kit) is mixed with the compound to be tested (in this case, myosmine and control compounds). Then, the MAO enzymes (either A or B, purchased separately) are added to the mixture and incubated with the reaction for 1 hour at room temperature. The MAO enzymes, if not inhibited by the test compound, will convert the substrate into methyl ester luciferin. Finally, a luciferin detection reagent (provided by the kit) is added (20 minutes at room temperature) to stop the MAO reaction and convert methyl ester luciferin into D-luciferin. […] The luminescent signal is measured and recorded using a luminometer. […]

In the case of `C#CCN(C)CCCOc1ccc(Cl)cc1Cl` [clorgyline], the “inhibition of the enzymatic activity of MAO-A (in words, curve position in FIG. 1)” value is reported as “greatly shifted leftward”.
